According to publication PMC10963303 (Pharmacology Research & Perspectives, 2024):

Molecular target: T1, OCT2 (Homo sapiens, UniProt O15244)
T1 sequence (O15244 1-555): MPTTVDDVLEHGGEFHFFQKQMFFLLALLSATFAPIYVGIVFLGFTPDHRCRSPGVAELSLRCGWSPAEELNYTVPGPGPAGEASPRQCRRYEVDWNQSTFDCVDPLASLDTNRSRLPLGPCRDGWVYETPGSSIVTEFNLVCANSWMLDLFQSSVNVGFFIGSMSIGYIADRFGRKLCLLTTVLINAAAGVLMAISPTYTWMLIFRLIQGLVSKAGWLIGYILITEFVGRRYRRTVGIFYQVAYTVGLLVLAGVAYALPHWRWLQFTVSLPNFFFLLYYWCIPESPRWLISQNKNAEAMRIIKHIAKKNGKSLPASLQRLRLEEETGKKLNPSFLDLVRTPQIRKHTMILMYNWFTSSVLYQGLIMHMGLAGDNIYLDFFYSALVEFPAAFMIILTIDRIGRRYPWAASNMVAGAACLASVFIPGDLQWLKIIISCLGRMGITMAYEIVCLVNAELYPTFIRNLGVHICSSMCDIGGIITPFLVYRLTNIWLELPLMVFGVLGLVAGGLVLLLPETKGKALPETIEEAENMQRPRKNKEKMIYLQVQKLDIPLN
Assay: clinical
Conditions: plasma, oral

CN(C)C(=N)N=C(N)N [metformin]
Cmax: 1110 ng/mL
